Target: T1, DNA gyrase of Escherichia coli (Escherichia coli, UniProt P0AES4+P0AES6)
T1 construct: purchased John Innes Enterprises #K0001
Assay: DNA gyrase inhibition (supercoiling assay kit), Exp. Ex. 1-2
Type: biochemical
Settings: E. coli DNA gyrase supercoiling, relaxed pBR322, 37° C., 30 minutes

Chains of the proteins cited; added tags and fusions are not shown.
UniProt P0AES4, whole entry: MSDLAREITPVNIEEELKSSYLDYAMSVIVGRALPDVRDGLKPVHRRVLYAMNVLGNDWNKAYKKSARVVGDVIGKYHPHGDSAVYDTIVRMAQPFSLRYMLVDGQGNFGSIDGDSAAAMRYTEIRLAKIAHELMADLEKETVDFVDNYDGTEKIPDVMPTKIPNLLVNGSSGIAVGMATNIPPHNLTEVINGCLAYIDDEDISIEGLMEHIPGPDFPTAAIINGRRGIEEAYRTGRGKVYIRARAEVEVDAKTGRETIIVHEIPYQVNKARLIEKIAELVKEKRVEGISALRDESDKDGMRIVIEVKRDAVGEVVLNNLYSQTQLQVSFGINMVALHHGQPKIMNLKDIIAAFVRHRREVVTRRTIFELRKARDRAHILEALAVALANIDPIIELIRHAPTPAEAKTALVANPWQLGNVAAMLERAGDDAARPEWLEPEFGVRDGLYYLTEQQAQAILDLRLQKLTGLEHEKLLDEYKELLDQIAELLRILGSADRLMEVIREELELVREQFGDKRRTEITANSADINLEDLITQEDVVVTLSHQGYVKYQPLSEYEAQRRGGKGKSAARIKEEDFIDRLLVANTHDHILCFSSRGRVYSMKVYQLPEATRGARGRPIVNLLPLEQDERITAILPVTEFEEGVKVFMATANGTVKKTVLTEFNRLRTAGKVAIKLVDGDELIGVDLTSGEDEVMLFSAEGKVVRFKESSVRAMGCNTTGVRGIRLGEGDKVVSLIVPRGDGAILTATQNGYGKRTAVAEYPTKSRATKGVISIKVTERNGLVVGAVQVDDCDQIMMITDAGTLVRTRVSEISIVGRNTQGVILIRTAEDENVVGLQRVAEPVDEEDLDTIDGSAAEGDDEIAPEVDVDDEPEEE

## 2-(3′,4′-Dihydroxy)-5,7-dihydroxy-3-β-D-(2″,3″-di-p-flurobenzyloxy)glucosyl-4H-chromen-4-one [Compound 15h]
  Gyrase inhibitory activity IC50: 2.04 µg/mL
